# Measurements: PMC6804466 (Acta Pharmaceutica Sinica. B, 2019)
# Molecular target: T1, hOAT3 (Homo sapiens, UniProt Q8TCC7)
# T1 sequence (Q8TCC7 1-542): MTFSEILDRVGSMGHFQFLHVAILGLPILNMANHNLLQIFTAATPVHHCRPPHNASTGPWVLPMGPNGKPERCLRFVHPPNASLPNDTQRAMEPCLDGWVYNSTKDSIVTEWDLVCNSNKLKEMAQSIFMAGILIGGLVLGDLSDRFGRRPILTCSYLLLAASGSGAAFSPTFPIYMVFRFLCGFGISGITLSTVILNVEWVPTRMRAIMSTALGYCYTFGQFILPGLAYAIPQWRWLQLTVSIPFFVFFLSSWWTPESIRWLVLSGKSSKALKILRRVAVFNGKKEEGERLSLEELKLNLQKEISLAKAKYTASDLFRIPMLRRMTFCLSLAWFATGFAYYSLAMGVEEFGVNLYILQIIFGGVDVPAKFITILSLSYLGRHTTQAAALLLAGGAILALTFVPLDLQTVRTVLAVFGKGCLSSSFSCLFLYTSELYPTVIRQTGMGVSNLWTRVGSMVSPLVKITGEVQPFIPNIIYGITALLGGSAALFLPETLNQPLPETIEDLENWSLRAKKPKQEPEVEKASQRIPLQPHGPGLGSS
# Settings: 100 μmol/L, 10 min, with or without Prb 200 μmol/L
structure (smiles),measurement,value
"CC1(C)C[C@@H]1C(=O)N/C(=C\CCCCSC[C@H](N)C(=O)O)C(=O)O [Cil, cilastatin]","Substrate of hOAT3 (uptake vs Mock cells, inhibited by Prb)",substrates of hOAT1 and hOAT3
